Patent US20230258569A1, “REAGENT FOR MEASURING SKIN SENSITIZATION, COMPOUND, AND METHOD FOR MEASURING SKIN SENSITIZATION” (FUJIFILM Corporation, priority 2020, published 2023)

Assay: Reactivity (% depletion) of nucleophilic reagent Compound 1 with test substance, HPLC; skin sensitization prediction
Details: FIG. 3, FIG. 4

SMILES | reactivity of Compound 1 in comparison with GSH-NBD | reactivity of Compound 1 in comparison with NAC and NAL in ADRA | reactivity of Compound 1 in comparison with NAC-amide | reactivity of Compound 1 in comparison with the cysteine peptide and the lysine peptide in DPRA
C=CCCCCCCCCC=O [Compound 10-Undecenal, 10-Undecenal] | higher reactivity | higher reactivity | higher reactivity | higher reactivity
CCOS(=O)(=O)OCC [Diethyl sulfate] | higher reactivity | higher reactivity | same level of reactivity | lower reactivity

Structures can show the parent of a compound that is named as a salt.
